Assays:
Format in all cases: physicochemical
[1] = x-Thiosuccinimide hydrolysis for PEG-biotin T289C mAb conjugates in the presence of sodium molybdate; conditions: 1 hr, 100 mM molybdate
[2] = Thiosuccinimide hydrolysis kinetics for x-maleimide-PEG-biotin T289C mAb conjugates; conditions: PEG-biotin conjugates at mAb position T289C
Description: x-Maleimide-PEG-biotin mAb conjugates were incubated in buffer solutions and monitored by LC/MS over time to observe thiosuccinimide hydrolysis. First, mAb containing the T289C Fc mutation (0.75 mg, 5 nmol, 1 eq) was reacted with x-maleimide-PEG-biotin (50 nmol, 5 mL of a 10 mM stock in DMAC, 10 eq) in 577 mL PBS, pH 7.2. The conjugation reaction was allowed to proceed for 5 minutes and then quenched with N-acetyl cysteine (500 nmol, 4 mL of 100 mM stock in water, 100 eq) and further incubated for 5 minutes. The reaction mixture was then combined with PBS containing 0.5 mM EDTA and 1M sodium phosphate at the desired pH to achieve final concentrations of 0.65 mg/mL mAb, 100 mM phosphate, 0.5 M EDTA and 150 mM NaCl. After sample preparation, an aliquot was removed and diluted 1:3 with 75 mM phosphate buffer pH 5.5 to obtain an initial time point sample. Samples were then further incubated at the desired conditions with aliquots removed at determined time points. All samples were immediately diluted 1:3 with 75 mM phosphate buffer pH 5.5 to stop the hydrolysis reaction. Samples were then sterile filtered, reduced with TCEP, and analyzed by LC/MS. Thiosuccinimide hydrolysis was confirmed by addition of 18 amu to the mAb conjugate peak in the mass spectrum. Semi-quantitative analysis of hydrolysis was performed using peak intensities in deconvoluted mass spectra and equation 3, which includes background subtraction using the T=0 measurement. […]
(§1) Thiosuccinimide hydrolysis data were also analyzed in units of molar concentration to determine kinetic constants. Pseudo 1st order rate constants were determined from the slopes of curves generated from plotting ln [maleimide] versus time and linear regression analysis.
as §1

[3] = BME challenge assay: sensitivity of PEG-biotin T289C mAb conjugates to thiol exchange in buffer containing thiols; conditions: for Psuedo first order rate constant (kobs), thiosuccinimide hydrolysis: pH 7.2, 37° C.
Description: Biotin-mAb conjugates were incubated in aqueous buffer containing β-mercaptoethanol (BME) to challenge the thiosuccinimide linkage against deconjugation. x-Maleimide-PEG-biotins were conjugated to mAb containing the T289C mutation as described above with minor modification. Conjugation reactions were performed at 1 equivalent x-PEG-maleimide:thiol for 15 min at 22° C. followed immediately by dilution to 0.2 mg/mL (1.33 μM mAb) with 1×PBS pH 7.2 containing 0.5 mM EDTA. The N-acetyl cysteine quenching step was omitted. For BME-containing samples, BME was added to a final concentration of 1% v/v (143 mM). Samples were further incubated at 37° C. under ambient atmosphere without stirring. Aliquots were removed at various time points, sterile filtered, reduced with DTT and then analyzed by LC/MS. Percent conjugated mAb and thiosuccinimide hydrolysis were determined from peak heights of mass spectra using Equation 1 and Equation 2, respectively. Deconjugated mAb and thiosuccinimide hydrolysis data were plotted as ln [concentration] vs. time (s) to obtain the pseudo-first order rate constants from the slope of the bestfit line.

[4] = Stability of mAb-biotin conjugates in the presence of free thiol (BME) after mild hydrolysis; conditions: PEG-biotin T289C mAb conjugates after mild hydrolysis (pH 8.6, 37° C., 1 hr)
Description: Biotin-mAb conjugates were incubated in aqueous buffer containing β-mercaptoethanol (BME) to challenge the thiosuccinimide linkage against deconjugation. In this experiment, thiosuccinimide conjugates were subjected to a brief incubation at mildly basic conditions to facilitate thiosuccinimide hydrolysis before the stability challenge. x-Maleimide-PEG-biotins were conjugated to mAb containing the T289C mutation as described above with minor modification. Conjugation reactions were performed at 1 equivalent x-PEG-maleimide:thiol for 15 min at 22° C. followed quenching with N-acetyl cysteine (100 eq rel. to mAb) and further reaction for 5 minutes. Reaction mixtures were adjusted to pH 8.6 by addition of 10% v/v sodium phosphate (1M, dibasic) and then incubated at 37° C. for 1 hr. Reactions were then dialyzed against PBS (pH 7.2) containing 0.5 mM EDTA for 24 hr at 4° C. After dialysis, mAb concentrations were confirmed by A280 measurement (NanoDrop) and samples were diluted to 0.2 mg/mL (1.33 μM mAb) with 1×PBS pH 7.2 containing 0.5 mM EDTA. For BME-containing samples, BME was added to a final concentration of 1% v/v (143 mM). […] Aliquots were removed at various time points, sterile filtered, reduced with DTT and then analyzed by LC/MS. Percent conjugated mAb and thiosuccinimide hydrolysis was determined from peak heights of mass spectra using Equation 1 and Equation 2, respectively. […]

N-fluorophenyl thiosuccinimide
Relative Hydrolysis (+sodium molybdate/−sodium molybdate) ([1]; pH 5.5, 22° C.): 52
Relative Hydrolysis (+sodium molybdate/−sodium molybdate) ([1]; pH 7.4, 22° C.): 2.2
Relative Hydrolysis (+sodium molybdate/−sodium molybdate) ([1]; pH 8.6, 22° C.): 1
Psuedo first order rate constant (kobs), thiosuccinimide hydrolysis ([2]; pH 7.4, 22° C.): 4.6e-05 s⁻¹
Psuedo first order rate constant (kobs), thiosuccinimide hydrolysis ([2]; pH 7.4, 37° C.): 0.00028 s⁻¹
Psuedo first order rate constant (kobs), thiosuccinimide hydrolysis ([2]; pH 8.6, 22° C.): 0.00049 s⁻¹
Initial hydrolysis ([3]; no pre-hydrolysis): <1%
Psuedo first order rate constant (kobs), thiosuccinimide hydrolysis ([3]; +BME): >3.3e-05 s⁻¹
Psuedo first order rate constant (kobs), thiosuccinimide hydrolysis ([3]; no BME): >3.1e-05 s⁻¹
Initial hydrolysis [4]: 96%

Reference: patent publication US20170304460A1, “METHOD OF CONJUGATING A POLYPEPTIDE” (MedImmune, LLC, priority 2014, published 2017)
